The format of the data set is physicochemical.

Read-outs that look alike come from different tables or passages of the source.

With ferric ammonium citrate [FAC], the precipitate in culture entry runs as follows: (10 mg/L, Cell line A cultures) “a small amount of rust coloured precipitate was observed”; (50 mg/L, Cell line A cultures) “observed in much larger quantities”; (50 mg/L, hybridoma cultures) “a rust coloured precipitate was seen”; (100 mg/L, Cell line A cultures) “observed in much larger quantities”; (100 mg/L, hybridoma cultures) “a rust coloured precipitate was seen”.

(Values after patent US8361797B2, “Myeloma cell culture in transferrin-free low iron medium” (Medimmune Limited, priority 2003, dated 2013).)
